The values that follow come from PMC11489552, “Specific targeting of cancer vaccines to antigen-presenting cells via an endogenous TLR2/6 ligand derived from cysteinyl-tRNA synthetase 1” (Molecular Therapy, 2024).

The series in a line: In vivo toxicity (body weight, spleen, serum cytokines). Further details: species or system C57BL/6 mice. Conditions: s.c., Pam2CSK4 100.6 nmol.

Consider Pam2CSK4, for which the “spleen size (splenomegaly)” value (48 h after administration) is reported as “splenomegaly”. In addition, the body weight result (EUCV 25 mpk (25.2 nmol) and 100 mpk (100.6 nmol), measured at 0, 24, 48 h) is “induced weight loss”.
